In PubChem BioAssay AID504634 (The Scripps Research Institute Molecular Screening Center, 2011):
The list shows a part of the results, in another mix than the full data. Calls of active or inactive are those of the source. Rule as the data show it: active = inhibition mostly above about 23% (no sharp cut-off); inactive = mostly below about 18%.

Amino acid sequences for entries named in this document (tags omitted).
UniProt P47898, whole entry, looked up: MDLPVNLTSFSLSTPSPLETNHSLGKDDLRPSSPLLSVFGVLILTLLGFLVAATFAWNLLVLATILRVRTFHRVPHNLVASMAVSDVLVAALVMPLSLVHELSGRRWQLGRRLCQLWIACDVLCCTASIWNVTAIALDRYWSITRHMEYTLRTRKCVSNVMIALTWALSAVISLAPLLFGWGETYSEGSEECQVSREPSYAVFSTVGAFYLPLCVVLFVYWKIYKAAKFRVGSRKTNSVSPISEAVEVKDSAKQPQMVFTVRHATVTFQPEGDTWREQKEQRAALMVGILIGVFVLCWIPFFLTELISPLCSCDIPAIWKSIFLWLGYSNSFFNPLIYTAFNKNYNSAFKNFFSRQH

target: 5-hydroxytryptamine receptor 5A (Homo sapiens) (UniProt P47898); assay: inverse agonism at human 5-HT5A receptor – cell-based, luminescence, full-deck HTS, counter-screen for OPRM1-OPRD1 heterodimer inverse agonist project, primary screen (AID 504634); conditions: HTR5A cell line, at 9.3 µM, active compounds read high;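 also: 0% = cells with DMSO and 100% = no-cell wells with DMSO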

SMILES	inhibition
O=C(Cn1c(SCC(=O)N2CCc3ccccc32)nc2ccccc21)NC1CCCC1	inactive: -18.5%
O=C(Cn1cnc2ccccc21)Nc1cc(C(F)(F)F)ccc1N1CCOCC1	inactive: -14.4%
Cn1c(=O)c2c(ncn2CC(=O)Nc2ccc(Cl)cc2Cl)n(C)c1=O	inactive: 0.66%
COc1ccccc1N1CCN(C(=O)Cn2cnc3c2c(=O)n(C)c(=O)n3C)CC1	inactive: 14.9%
Cn1c(=O)[nH]c(=O)c2c1nc(CN1CCN(c3cccc(Cl)c3)CC1)n2CCN1CCOCC1	inactive: 10.7%
CSc1nc(N)nc2c1ncn2CC(=O)NCC1CCCO1 (centres undefined)	inactive: 8.51%
O=C(Cn1c(-c2ccccc2Cl)nc2ccccc21)Nc1cccc(Cl)c1	inactive: 6.03%
Cn1c(=O)c2ncn(CC(=O)NCCOCc3ccccc3Cl)c2n(C)c1=O	inactive: 3.37%
Cn1c(=O)c2c(ncn2CC(=O)Nc2ccccc2Sc2ccccc2)n(C)c1=O	inactive: 11.2%
Cc1ccc(NC(=O)Cn2cnc3c(NCc4ccccc4)ncnc32)cc1C	inactive: 8.13%
Cc1ccc2c(c1)C1C[N+](C)(CC(=O)Nc3ccccc3Cl)CCC1N2C(=O)c1ccccc1Cl (centres undefined)	inactive: 3.79%
Nc1cccc([As](=O)(O)c2ccccc2)c1	inactive: -9.09%
CCOCN(C(=O)Cn1c(COC)nc2ccccc21)c1c(C)cccc1CC	inactive: 3.38%
Cc1ccc2c(c1)C1CN(C)CCC1N2C(=O)Cn1nnc(-c2ccccc2F)n1 (centres undefined)	inactive: 0.47%
Cn1c(CNc2nc3ccccc3n2CCN2CCCCC2)nc2ccccc21	inactive: -5.26%
Cc1ccc(S(=O)(=O)N2CCN(C(=O)Cn3cnc4c3c(=O)n(C)c(=O)n4C)CC2)cc1C	inactive: 7.35%
Cc1cc(NC(=O)Cn2cnc3c2c(=O)n(C)c(=O)n3C)n(-c2ccccc2)n1	inactive: -2.4%
NS(=O)(=O)c1cccc(NC(=O)COC(=O)C(O)(c2ccccc2)c2ccccc2)c1	inactive: 9.28%
O=C(NCCn1c(-c2ccncc2)nc2ccccc21)[C@H]1CCCN1c1nc(CN2CCCCC2)cs1	inactive: -2.23%
CC(C)C[C@H](NC(=O)N1CCn2c1nc1ccccc12)C(=O)NCc1ccco1	inactive: 12.6%
COC(=O)[C@H](Cc1ccc(O)cc1)NC(=O)Cn1cnc2c(OCc3ccccc3)ncnc21	inactive: 3.91%
Cc1ccc2c(c1)C1CN(C)CCC1N2C(=O)c1ccccc1NS(=O)(=O)c1ccc(F)cc1C (centres undefined)	inactive: 4.73%
O=P1(Nc2ccc(Br)cn2)COc2ccccc2OC1	inactive: 3.96%

SMILES	inhibition
O=[As](O)(c1cccs1)c1cccs1	inactive: -23.6%
CCc1ccccc1NC(=O)CSc1nc2ccccc2n1CC(=O)N1CCCC1	inactive: 0.88%
Cc1ccc(C(=O)N(C)c2ccc(OCC(=O)N3c4ccc(C)cc4C4CN(C)CCC43)cc2)cc1 (centres undefined)	inactive: 7.6%
C[C@H](O)[C@@H]1C(=O)N2CCc3ccc(N4CCN(C)CC4)cc3[C@@H]2C[C@@H]1N(C)C(=O)Nc1cc(Cl)cc(Cl)c1	inactive: 11%
Cc1ccc(OCC(=O)OC2CN3CCC2CC3)cc1 (centres undefined)	inactive: 4.36%
CCC(=O)N1CCn2c1nc1ccccc12	inactive: -14.8%
NC(=O)Cn1c(S(=O)(=O)Cc2ccccc2)nc2ccccc21	inactive: 12.2%
CC(c1ccccc1)N1CCn2c(nc3cc(NC(=O)c4cccs4)ccc32)C1 (centres undefined)	inactive: 25.3%
O=C1CC(N2CCC(n3c(=O)[nH]c4ccccc43)CC2)C(=O)N1c1ccc(F)cc1 (centres undefined)	inactive: -4.46%
CC(C)N(C(=O)Cn1c(SCC(=O)NCc2ccc3c(c2)OCO3)nc2ccccc21)C(C)C	inactive: 5.31%
N=c1n(CCN2CCOCC2)c2ccccc2n1Cc1ccccc1Br	inactive: -5.16%
CCc1ccccc1NC(=O)CSc1nc2ccccc2n1CC(=O)N(C)C	inactive: -11.4%
O=S(=O)(Nc1ccc2c(c1)nc1n2CCN(Cc2ccccc2)C1)c1ccc(Cl)cc1	inactive: -23.1%
O=C(Cn1cnc2ccccc21)N/N=C/c1cccs1	inactive: -15.3%
CN(C)CCn1cnc2c1c(=O)[nH]c(=O)n2Cc1ccccc1	inactive: -15.9%
Cc1ccc2c(c1)C1CN(C)CCC1N2C(=O)c1ccc(Br)o1 (centres undefined)	inactive: 3.02%
Cc1ccc2c(c1)C1CN(C)CCC1N2C(=O)/C(C#N)=C/c1ccc2c(c1)OCO2 (centres undefined)	inactive: -47.8%
COC(=O)CSc1nc2ccccc2n1CC(=O)N(C(C)C)C(C)C	inactive: 8.19%
O=P1(Nc2ncccn2)COc2ccccc2OC1	inactive: 3.01%
Cn1c(=O)[nH]c(=O)c2c1nc(N1CCOCC1)n2CCN1CCOCC1	inactive: 0.49%
CCN(CC)C(=O)N1CCn2c(nc3ccccc32)C1	inactive: -26.6%
Fc1ccc2c(c1)nnn2C1CCN(Cc2nnnn2C2CCCCC2)CC1	inactive: 1.02%
COC(=O)[C@@H](Cc1ccccc1)NC(=O)Cn1cnc2c(SC)nc(N)nc21	inactive: -4.98%

SMILES	inhibition
COC(CNC(=O)CC1C(=O)N(Cc2ccccc2)C(C)c2nc3ccccc3n21)OC (centres undefined)	inactive: -0.14%
NNC(=O)Cn1c(COc2ccc(Cl)cc2)nc2ccccc21	inactive: 6.28%
NC(=O)CC(NC(=O)Cc1cccc2ccccc12)c1ccc(NC2CCN(Cc3ccccc3)CC2)c([N+](=O)[O-])c1 (centres undefined)	inactive: 10%
N=c1n(CCN2CCOCC2)c2ccccc2n1CC(O)COc1ccccc1 (centres undefined)	inactive: 15.9%
COc1cccc(C(=O)CSc2nc3ccccc3n2CC(=O)N(C(C)C)C(C)C)c1	inactive: 8.47%
CC(C)Sc1nc2ccccc2n1CC(=O)NCc1ccc2c(c1)OCO2	inactive: -9.11%
Cn1c(=O)n(Cc2ccc(F)cc2)c(=O)c2c1nc1n2CCN1Cc1ccco1	inactive: 15.9%
CCOC(=O)CNC(=S)N1CCn2c(nc3ccccc32)C1	inactive: 13.2%
Cc1nc2ccccc2n1CC(=O)NCc1ccccc1	inactive: 0.95%
CCOC(=O)C1CCN(C(=O)CC2C(=O)N(Cc3ccccc3)C(C)c3nc4ccccc4n32)CC1 (centres undefined)	inactive: 0.53%
Cn1c(=O)c2c(ncn2CC(=O)N/N=C/C=C/c2ccco2)n(C)c1=O	inactive: -5.89%
Cn1c(=O)c2c(ncn2CC(=O)N/N=C/c2cn[nH]c2-c2ccc(F)cc2)n(C)c1=O	inactive: -2.84%
O=C(Cn1cnc2ccccc21)N/N=C/c1ccc([N+](=O)[O-])cc1	inactive: -2.57%
O=C(O)COc1ccc([As](=O)(O)O)cc1[N+](=O)[O-]	inactive: -9.87%
Nc1ccccc1[As](=O)(O)c1ccccc1	inactive: -21.2%
Cc1ccc2c(c1)C1CN(C)CCC1N2C(=O)c1cn(-c2ccccc2)nc1-c1ccccc1 (centres undefined)	inactive: 3.3%
Nc1nonc1-c1nc2ccccc2n1CC(=O)N/N=C/c1ccc(-c2cccc(C(=O)O)c2)o1	inactive: 8.3%
CCOC(=O)c1ccccc1NC(=O)Cn1cnc2c1c(=O)n(C)c(=O)n2C	inactive: 14%
NC(=O)Cn1c(-c2nonc2N)nc2ccccc21	inactive: -7.83%
COCCN1CCn2c(nc3cc(NC(=O)NC4CCCCC4)ccc32)C1	inactive: -19.1%
Cc1nc2ccccc2n1CC(=O)N/N=C/c1cccnc1	inactive: 6.1%
O=P(Nc1nccs1)(c1ccccc1)c1nc2ccccc2s1 (centres undefined)	inactive: -6.96%
Cn1c(=O)c2c(ncn2CC(=O)N2CCN(S(=O)(=O)c3ccc(Cl)cc3)CC2)n(C)c1=O	inactive: 9.91%

SMILES	inhibition
CCN(CC)CCn1c(C)nc2ccccc21	inactive: -13.9%
O=P(Nc1nccs1)(Oc1ccccc1)Oc1ccccc1	inactive: 13.6%
Cc1ccccc1NC(=O)Cn1c(NCC(C)O)nc2ccccc21 (centres undefined)	inactive: -7.76%
CCc1nc2ccccc2n1CC(=O)Nc1cc(C)on1	inactive: -68.7%
CC(C)c1ccc(NC(=O)C2CC(=O)Nc3nc4ccccc4n32)cc1 (centres undefined)	inactive: 7.86%
O=C(Nc1nc2ccccc2n1CCN1CCOCC1)c1ccc(Cn2cc([N+](=O)[O-])cn2)o1	inactive: -10.4%
N#Cc1ccc(NC(=O)Cn2c3[n+](c4ccc(C(F)(F)F)cc42)CCCCC3)cc1	inactive: -5.24%
CCC(C)[C@H](NC(=O)N1CCn2c1nc1ccccc12)C(=O)NCCc1ccc(OC)c(OC)c1 (some centres undefined)	inactive: -3.61%
Cn1c(=O)n(CC(=O)Nc2ccc(F)cc2)c2ccccc21	inactive: -10.8%
C/C(=N\NC(=O)Cn1c(-c2ccccn2)nc2ccccc21)c1cccc(O)c1	inactive: 5.97%
CCN1CCC(Nc2ccnc3cc(Cl)ccc23)CC1	inactive: -12.3%
CN(C(=O)Cn1c(Cl)nc2c1c(=O)n(C)c(=O)n2C)C1CCS(=O)(=O)C1 (centres undefined)	inactive: 9.32%
CCOP1(=S)c2c(C)nn(CCC#N)c2N=C(c2ccccc2F)N1C (centres undefined)	inactive: 12.4%
CS(=O)(=O)c1cc([N+](=O)[O-])c2no[n+]([O-])c2c1	inactive: 11.8%
Cc1ccc(/C=N\NC(=O)Cn2c(C)nc3ccccc32)o1	inactive: 13.6%
Cn1c(=O)c2c(ncn2CC(=O)Nc2ccc3c(c2)OCO3)n(C)c1=O	inactive: -2.75%
O=C(Cn1cnc2ccccc21)N1CCc2ccccc21	inactive: -8.17%
COC(=O)[C@H](CCSC)NC(=O)Cn1cnc2c(SC)nc(N)nc21	inactive: 25%
O=C1NCN(c2ccccc2)C12CCN(c1nnnn1-c1ccccc1)CC2	inactive: 2.09%
CN(C)C(=O)Cn1c(SCC(=O)N2CCCc3ccccc32)nc2ccccc21	inactive: 23.8%
